Reference: PubChem BioAssay (NCI)
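Assay format: 96-well plates, 48-hour exposure. GI50 = concentration required for 50% inhibition of growth. Definition used: TGI = concentration required for complete inhibition of growth.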

Legend:
Test in all cases: NCI tumour cell line growth inhibition, 48 h
CAKI-1 renal = tested on: CAKI-1 renal
MDA-MB-435 = tested on: MDA-MB-435
SNB-75 CNS = tested on: SNB-75 CNS
HT29 colon = tested on: HT29 colon
UACC-257 melanoma = tested on: UACC-257 melanoma
TK-10 renal = tested on: TK-10 renal
OVCAR-5 ovarian = tested on: OVCAR-5 ovarian
HOP-62 NSCLC = tested on: HOP-62 NSCLC
LXFL 529 NSCLC = tested on: LXFL 529 NSCLC
NCI-H23 lung = tested on: NCI-H23 lung
UACC-62 melanoma = tested on: UACC-62 melanoma
786-0 renal = tested on: 786-0 renal
M14 melanoma = tested on: M14 melanoma
PC-3 prostate = tested on: PC-3 prostate
SF-295 CNS = tested on: SF-295 CNS
DU-145 prostate = tested on: DU-145 prostate
DLD-1 colon = tested on: DLD-1 colon
SK-MEL-28 melanoma = tested on: SK-MEL-28 melanoma
HCC-2998 colon = tested on: HCC-2998 colon
RXF 393 renal = tested on: RXF 393 renal
MOLT-4 leukemia = tested on: MOLT-4 leukemia
KM12 colon = tested on: KM12 colon
K-562 leukemia = tested on: K-562 leukemia
NCI-H460 lung = tested on: NCI-H460 lung
U251 CNS = tested on: U251 CNS
M19-MEL melanoma = tested on: M19-MEL melanoma
CCRF-CEM leukemia = tested on: CCRF-CEM leukemia
HCT-116 colon = tested on: HCT-116 colon
NCI/ADR-RES ovarian = tested on: NCI/ADR-RES ovarian
NCI-H522 lung = tested on: NCI-H522 lung
LOX IMVI melanoma = tested on: LOX IMVI melanoma
UO-31 renal = tested on: UO-31 renal
EKVX NSCLC = tested on: EKVX NSCLC
HS 578T breast = tested on: HS 578T breast
COLO 205 colon = tested on: COLO 205 colon
T-47D breast = tested on: T-47D breast
RPMI-8226 leukemia = tested on: RPMI-8226 leukemia
BT-549 breast = tested on: BT-549 breast
NCI-H322M lung = tested on: NCI-H322M lung
HOP-92 NSCLC = tested on: HOP-92 NSCLC
MALME-3M melanoma = tested on: MALME-3M melanoma
SNB-78 CNS = tested on: SNB-78 CNS
DMS 273 small cell lung = tested on: DMS 273 small cell lung
A498 renal = tested on: A498 renal
IGROV1 ovarian = tested on: IGROV1 ovarian
SF-539 CNS = tested on: SF-539 CNS
SNB-19 CNS = tested on: SNB-19 CNS
MDA-N = tested on: MDA-N
SK-MEL-5 melanoma = tested on: SK-MEL-5 melanoma
SF-268 CNS = tested on: SF-268 CNS
OVCAR-4 ovarian = tested on: OVCAR-4 ovarian
HL-60(TB) leukemia = tested on: HL-60(TB) leukemia
SK-OV-3 ovarian = tested on: SK-OV-3 ovarian
OVCAR-8 ovarian = tested on: OVCAR-8 ovarian
KM20L2 colon = tested on: KM20L2 colon
SN12C renal = tested on: SN12C renal
SK-MEL-2 melanoma = tested on: SK-MEL-2 melanoma
NCI-H226 lung = tested on: NCI-H226 lung
MDA-MB-231 breast = tested on: MDA-MB-231 breast
MCF7 breast = tested on: MCF7 breast
HCT-15 colon = tested on: HCT-15 colon
ACHN renal = tested on: ACHN renal
SW-620 colon = tested on: SW-620 colon
SR leukemia = tested on: SR leukemia
OVCAR-3 ovarian = tested on: OVCAR-3 ovarian
A549 NSCLC = tested on: A549 NSCLC

Compound `O=[N+]([O-])OCCOc1ccc([As](=O)(O)O)cc1[N+](=O)[O-]` has a GI50 (CAKI-1 renal) of over 100 µM, a TGI (CAKI-1 renal) of over 100 µM and a GI50 (MDA-MB-435) of over 100 µM. The TGI (MDA-MB-435) was over 100 µM, the GI50 (SNB-75 CNS) was 64.1 µM and the TGI (SNB-75 CNS) was over 100 µM. It also gave a GI50 (HT29 colon) of over 100 µM, a TGI (HT29 colon) of over 100 µM and a GI50 (UACC-257 melanoma) of over 100 µM. For the same compound, the TGI (UACC-257 melanoma) was over 100 µM, the GI50 (TK-10 renal) was over 100 µM and the TGI (TK-10 renal) was over 100 µM. For the same compound, the GI50 (OVCAR-5 ovarian) was over 100 µM, the TGI (OVCAR-5 ovarian) was over 100 µM and the GI50 (HOP-62 NSCLC) was over 100 µM. It also gave a TGI (HOP-62 NSCLC) of over 100 µM, a GI50 (LXFL 529 NSCLC) of over 100 µM and a TGI (LXFL 529 NSCLC) of over 100 µM. For the same compound, the GI50 (NCI-H23 lung) was over 100 µM, the TGI (NCI-H23 lung) was over 100 µM and the GI50 (UACC-62 melanoma) was over 100 µM. For the same compound, the TGI (UACC-62 melanoma) was over 100 µM, the GI50 (786-0 renal) was over 100 µM and the TGI (786-0 renal) was over 100 µM. The GI50 (M14 melanoma) was over 100 µM, the TGI (M14 melanoma) was over 100 µM and the GI50 (PC-3 prostate) was over 100 µM. It also gave a TGI (PC-3 prostate) of over 100 µM, a GI50 (SF-295 CNS) of over 100 µM and a TGI (SF-295 CNS) of over 100 µM. The GI50 (DU-145 prostate) was over 100 µM, the TGI (DU-145 prostate) was over 100 µM and the GI50 (DLD-1 colon) was over 100 µM. The TGI (DLD-1 colon) was over 100 µM, the GI50 (SK-MEL-28 melanoma) was over 100 µM and the TGI (SK-MEL-28 melanoma) was over 100 µM. It also gave a GI50 (HCC-2998 colon) of over 100 µM, a TGI (HCC-2998 colon) of over 100 µM and a GI50 (RXF 393 renal) of over 100 µM. It also gave a TGI (RXF 393 renal) of over 100 µM, a GI50 (MOLT-4 leukemia) of over 100 µM and a TGI (MOLT-4 leukemia) of over 100 µM. For the same compound, the GI50 (KM12 colon) was over 100 µM, the TGI (KM12 colon) was over 100 µM and the GI50 (K-562 leukemia) was over 100 µM. The TGI (K-562 leukemia) was over 100 µM, the GI50 (NCI-H460 lung) was over 100 µM and the TGI (NCI-H460 lung) was over 100 µM. It also gave a GI50 (U251 CNS) of over 100 µM, a TGI (U251 CNS) of over 100 µM and a GI50 (M19-MEL melanoma) of over 100 µM. It also gave a TGI (M19-MEL melanoma) of over 100 µM, a GI50 (CCRF-CEM leukemia) of over 100 µM and a TGI (CCRF-CEM leukemia) of over 100 µM. It also gave a GI50 (HCT-116 colon) of over 100 µM, a TGI (HCT-116 colon) of over 100 µM and a GI50 (NCI/ADR-RES ovarian) of over 100 µM. It also gave a TGI (NCI/ADR-RES ovarian) of over 100 µM, a GI50 (NCI-H522 lung) of 14.5 µM and a TGI (NCI-H522 lung) of over 100 µM. The GI50 (LOX IMVI melanoma) was over 100 µM, the TGI (LOX IMVI melanoma) was over 100 µM and the GI50 (UO-31 renal) was over 100 µM. The TGI (UO-31 renal) was over 100 µM, the GI50 (EKVX NSCLC) was over 100 µM and the TGI (EKVX NSCLC) was over 100 µM. The GI50 (HS 578T breast) was over 100 µM, the TGI (HS 578T breast) was over 100 µM and the GI50 (COLO 205 colon) was over 100 µM. The TGI (COLO 205 colon) was over 100 µM, the GI50 (T-47D breast) was over 100 µM and the TGI (T-47D breast) was over 100 µM. It also gave a GI50 (RPMI-8226 leukemia) of over 100 µM, a TGI (RPMI-8226 leukemia) of over 100 µM and a GI50 (BT-549 breast) of over 100 µM. It also gave a TGI (BT-549 breast) of over 100 µM, a GI50 (NCI-H322M lung) of over 100 µM and a TGI (NCI-H322M lung) of over 100 µM. For the same compound, the GI50 (HOP-92 NSCLC) was over 100 µM, the TGI (HOP-92 NSCLC) was over 100 µM and the GI50 (MALME-3M melanoma) was 18.2 µM. For the same compound, the TGI (MALME-3M melanoma) was over 100 µM, the GI50 (SNB-78 CNS) was over 100 µM and the TGI (SNB-78 CNS) was over 100 µM. For the same compound, the GI50 (DMS 273 small cell lung) was over 100 µM, the TGI (DMS 273 small cell lung) was over 100 µM and the GI50 (A498 renal) was over 100 µM. The TGI (A498 renal) was over 100 µM, the GI50 (IGROV1 ovarian) was over 100 µM and the TGI (IGROV1 ovarian) was over 100 µM. The GI50 (SF-539 CNS) was over 100 µM, the TGI (SF-539 CNS) was over 100 µM and the GI50 (SNB-19 CNS) was over 100 µM. It also gave a TGI (SNB-19 CNS) of over 100 µM, a GI50 (MDA-N) of over 100 µM and a TGI (MDA-N) of over 100 µM. For the same compound, the GI50 (SK-MEL-5 melanoma) was over 100 µM, the TGI (SK-MEL-5 melanoma) was over 100 µM and the GI50 (SF-268 CNS) was over 100 µM. It also gave a TGI (SF-268 CNS) of over 100 µM, a GI50 (OVCAR-4 ovarian) of over 100 µM and a TGI (OVCAR-4 ovarian) of over 100 µM. For the same compound, the GI50 (HL-60(TB) leukemia) was over 100 µM, the TGI (HL-60(TB) leukemia) was over 100 µM and the GI50 (SK-OV-3 ovarian) was over 100 µM. The TGI (SK-OV-3 ovarian) was over 100 µM, the GI50 (OVCAR-8 ovarian) was over 100 µM and the TGI (OVCAR-8 ovarian) was over 100 µM. It also gave a GI50 (KM20L2 colon) of over 100 µM, a TGI (KM20L2 colon) of over 100 µM and a GI50 (SN12C renal) of over 100 µM. The TGI (SN12C renal) was over 100 µM, the GI50 (SK-MEL-2 melanoma) was over 100 µM and the TGI (SK-MEL-2 melanoma) was over 100 µM. The GI50 (NCI-H226 lung) was over 100 µM, the TGI (NCI-H226 lung) was over 100 µM and the GI50 (MDA-MB-231 breast) was over 100 µM. It also gave a TGI (MDA-MB-231 breast) of over 100 µM, a GI50 (MCF7 breast) of over 100 µM and a TGI (MCF7 breast) of over 100 µM. The GI50 (HCT-15 colon) was over 100 µM, the TGI (HCT-15 colon) was over 100 µM and the GI50 (ACHN renal) was over 100 µM. It also gave a TGI (ACHN renal) of over 100 µM, a GI50 (SW-620 colon) of over 100 µM and a TGI (SW-620 colon) of over 100 µM. The GI50 (SR leukemia) was over 100 µM, the TGI (SR leukemia) was over 100 µM and the GI50 (OVCAR-3 ovarian) was over 100 µM. It also gave a TGI (OVCAR-3 ovarian) of over 100 µM, a GI50 (A549 NSCLC) of over 100 µM and a TGI (A549 NSCLC) of over 100 µM.
